Patent US20070105910A1, “Medicinal composition” (priority 2003, published 2007)
Counter-ions that a name gives are not always drawn.

Experiment: Repeated oral administration test for 10 days using rats: blood hemoglobin (Hb)
Type: in vivo
Conditions: SD rats, 8 weeks of age; before administration (baseline)
Method: SD-Family rats (Crj:CD:IGS) of 8 weeks of age were divided into two groups; in one group, pioglitazone hydrochloride is orally administered at a dose of 240 mg/kg/day for 10 days forcibly through a gastric probe, and the in the other group, 240 mg/kg/day of pioglitazone hydrochloride and 100 mg/kg/day of benfotiamine were administered in the same manner. After termination of the administration, the blood was collected from the rats and the hemoglobin (Hb) value was determined. Then, the rats were killed, and their hearts were weighed (relative weight).

## CCc1ccc(CCOc2ccc(CC3SC(=O)NC3=O)cc2)nc1 (stereo not shown) [Pioglitazone HCl, pioglitazone hydrochloride]
  Blood Hb conc. before administration: 12.9 g/dL
